The values below come from patent publication US20150374673A1, “Combination Therapy for the Treatment of Nosocomial Pneumonia” (priority 2013, published 2015).

The subject of this assay is K. pneumoniae. Briefly: Checkerboard assay, mean FICI. It is filed as cell-based. As to the method: All MIC determinations including those performed in the checkerboard assay were done in cation-adjusted Mueller-Hinton broth (purchased from Becton Dickinson, Oxford UK).
Initial MIC data were determined by microbroth dilution methods as recommended by CLSI (2012b). Checkerboards were made in accordance with the method given by Pillai et. al., ? Antimicrobial Combinations in Antibiotics, LABORATORY MEDICINE (Lorian Ed., 3rd Ed. (2003)) p. 365-440 as per standard microbroth dilution tests but with agents in combination. […] A final avibactam concentration of 4 mg/L was used throughout the study. Antibacterial agents were combined into microtitre plates using the Evolution III liquid handling system.
Checkerboard plates were inoculated and incubated in accordance with CLSI guidelines (2012b) at 35±2° C. in ambient air for 16-20 h. MICs were recorded the following day as the lowest concentration or combination of concentrations required to inhibit all visible growth. From the MIC data, FICIs were calculated for each checkerboard according to the method of Meletiadis et. al., Defining Fractional Inhibitory Concentration Index Cutoffs for Additive Interactions Based on Self-Drug Additive Combinations, Monte Carlo Simulation Analysis and in vitro-in vivo Correlation Data for Antifungal Drug Combinations Against Aspergillus fumigatus, AAC 54:602-09 (2010).
FICI=FICA+FICB=(CA/MICA)+(CB/MICB)
As each checkerboard gives a number of FICI values, an arithmetic mean is calculated from all values to give the mean FICI for two agents combined against one isolate. Mean FICIs were interpreted by the following criteria given by Odds (2003) which are now the accepted criteria by most journals: […]

With `CC(C)(O/N=C(\C(=O)N[C@@H]1C(=O)N2C(C(=O)[O-])=C(C[n+]3ccccc3)CS[C@H]12)c1csc(N)n1)C(=O)O` [ceftazidime, (6R,7R)-7-[[(2Z)-2-(2-amino-1,3-thiazol-4-yl)-2-(1-hydroxy-2-methyl-1-oxopropan-2-yl)oxyiminoacetyl]amino]-8-oxo-3-(pyridin-1-ium-1-ylmethyl)-5-thia-1-azabicyclo[4.2.0]oct-2-ene-2-carboxylate pentahydrate], the “Mean FICI” value (with Col, isolate 13 K. pneumoniae KPC-3) came to 1.26; the “Mean FICI” value (with Lev, isolate 11 K. pneumoniae CTX-M-15) is on record as 1.21; the “Mean FICI” value (with Lev, isolate 12 K. pneumoniae SHV-12) amounted to 1.16; the “Mean FICI” value (with Lev, isolate 13 K. pneumoniae KPC-3) came to 1.24; the “Mean FICI” value (with Lev, isolate 14 K. pneumoniae KPC-3) was 1.26; the “Mean FICI” value (with Lev, isolate 15 K. pneumoniae KPC-2) came to 1.26. In addition, the “Mean FICI” value is given as 1.16 (with Tig, isolate 9 K. pneumoniae Basal MICs); 1.32 (with Tig, isolate 10 K. pneumoniae TEM-4); 1.23 (with Tig, isolate 15 K. pneumoniae KPC-2).
